From patent US12398109B2, “2-amino-2-(1,2,3-triazole-4-yl)propane-1,3-diol derivative of novel compound for directly inhibiting ASM activity, and use thereof” (KYUNGPOOK NATIONAL UNIVERSITY INDUSTRY-ACADEMIC COOPERATION …, priority 2018, dated 2025)

Columns and labels:
[1] = system: APP/PS1 mouse; test: Open field test and dark & light test in APP/PS1 mouse; assay type: in vivo; conditions: SCNPA 100 mg/kg/day, FTY720 1 mg/kg/day
Method: In order to confirm a potential effect on learning and memory, a Morris Water Maze (MWM) test was performed. In the MWM, the mouse learned a task 4 times a day for 10 days, a platform was removed on day 11, and aprobe trial was performed. To evaluate activity and anxiety, an open field test and a dark and light test were performed. In the open field test, the mouse was placed in a quadrangular box for 10 minutes and then overall activity and a time spent to move around a wall side and a center were measured. In the dark and light test, the mouse was placed in a quadrangular box consisting of a dark box and a light box for 10 minutes, and a time staying in each box, the number of reciprocating the boxes, and a time to first enter into a light box were measured.
In addition, an open field test and a dark & light test were conducted to confirm an effect of the ASM inhibitory compounds on activity and anxiety.

[2] = system: astrocytes (GFAP); test: Astrocytes (GFAP) in brain of APP/PS1 mouse; conditions: in vivo

Compound: CCCCCCCCCn1cc(C(N)(CO)CO)nn1 [SCNPA201, 2-amino-2-(1-nonanyl-1H-1,2,3-triazol-4-yl)propane-1,3-diol]
- activity and anxiety [1]: improved
- activity of astrocytes [2]: significantly decreased
